ChEMBL document CHEMBL1130041, “Halogenated 4-(phenoxymethyl)piperidines as potential radiolabeled probes for sigma-1 receptors: in vivo evaluation of [123I]-1-(iodopropen-2-yl)-4-[(4-cyanophenoxy)methyl]pip eri dine” (J Med Chem, 1997)

Experiment: Ki ratio measured as Ki of sigma-2 receptor to that of sigma-1 receptor.

## N#Cc1ccc(OCC2CCN(CCCF)CC2)cc1
  Ratio: 33.5
